Results taken from ChEMBL document CHEMBL2218924, “A broad activity screen in support of a chemogenomic map for kinase signalling research and drug discovery” (Biochem J, 2013).
For some assays here: Shown are results outside the selection of strong results, which stands elsewhere. The rule behind the calls is not given here. The entries are a selection whose mix differs from that of the whole data set.

The chains behind the UniProt entries cited, without tags or fusion partners. Where a name states a change or a piece, a line headed by the entry shows the natural chain unless it says otherwise.
UniProt O14965: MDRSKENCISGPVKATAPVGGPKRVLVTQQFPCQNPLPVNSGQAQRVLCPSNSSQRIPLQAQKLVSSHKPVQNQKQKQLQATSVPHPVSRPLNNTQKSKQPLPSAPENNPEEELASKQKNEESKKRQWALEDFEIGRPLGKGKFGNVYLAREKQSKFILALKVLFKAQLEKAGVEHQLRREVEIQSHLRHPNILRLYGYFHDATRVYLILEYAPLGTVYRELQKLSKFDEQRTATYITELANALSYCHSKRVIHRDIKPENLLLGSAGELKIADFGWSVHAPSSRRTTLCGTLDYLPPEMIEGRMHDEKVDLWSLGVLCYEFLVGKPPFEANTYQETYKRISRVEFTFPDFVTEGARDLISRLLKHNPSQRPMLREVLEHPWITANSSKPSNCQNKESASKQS
UniProt P48730: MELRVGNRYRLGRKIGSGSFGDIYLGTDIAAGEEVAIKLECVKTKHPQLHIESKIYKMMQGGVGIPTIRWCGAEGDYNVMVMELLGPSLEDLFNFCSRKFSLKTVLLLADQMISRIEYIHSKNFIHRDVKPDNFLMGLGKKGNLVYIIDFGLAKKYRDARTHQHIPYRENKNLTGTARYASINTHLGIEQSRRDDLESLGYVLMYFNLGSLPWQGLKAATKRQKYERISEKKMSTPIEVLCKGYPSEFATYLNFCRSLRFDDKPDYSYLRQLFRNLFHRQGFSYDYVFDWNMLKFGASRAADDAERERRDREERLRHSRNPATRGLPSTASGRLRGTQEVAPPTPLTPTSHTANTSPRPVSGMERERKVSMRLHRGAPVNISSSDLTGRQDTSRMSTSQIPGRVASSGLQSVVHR
UniProt Q8N568: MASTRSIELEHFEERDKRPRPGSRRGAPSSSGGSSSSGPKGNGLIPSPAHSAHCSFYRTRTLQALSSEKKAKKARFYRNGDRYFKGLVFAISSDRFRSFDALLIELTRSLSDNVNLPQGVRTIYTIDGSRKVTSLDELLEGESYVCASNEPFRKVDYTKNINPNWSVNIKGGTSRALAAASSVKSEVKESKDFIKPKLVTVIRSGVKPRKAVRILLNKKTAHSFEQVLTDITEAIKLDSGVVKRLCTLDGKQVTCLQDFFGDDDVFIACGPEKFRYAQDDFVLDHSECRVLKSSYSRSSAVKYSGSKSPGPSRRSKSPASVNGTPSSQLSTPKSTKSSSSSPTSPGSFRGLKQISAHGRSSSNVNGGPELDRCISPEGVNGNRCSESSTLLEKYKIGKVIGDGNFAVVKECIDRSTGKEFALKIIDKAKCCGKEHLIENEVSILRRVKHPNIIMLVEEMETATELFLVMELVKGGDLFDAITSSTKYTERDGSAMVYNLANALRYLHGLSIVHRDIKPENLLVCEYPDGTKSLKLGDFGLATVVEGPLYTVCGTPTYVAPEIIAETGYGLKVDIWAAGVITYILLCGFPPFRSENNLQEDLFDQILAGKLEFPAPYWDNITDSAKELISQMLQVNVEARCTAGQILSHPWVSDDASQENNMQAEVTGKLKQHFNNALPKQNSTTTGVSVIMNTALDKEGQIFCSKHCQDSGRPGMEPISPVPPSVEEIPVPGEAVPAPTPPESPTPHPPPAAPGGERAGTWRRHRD
UniProt Q16832: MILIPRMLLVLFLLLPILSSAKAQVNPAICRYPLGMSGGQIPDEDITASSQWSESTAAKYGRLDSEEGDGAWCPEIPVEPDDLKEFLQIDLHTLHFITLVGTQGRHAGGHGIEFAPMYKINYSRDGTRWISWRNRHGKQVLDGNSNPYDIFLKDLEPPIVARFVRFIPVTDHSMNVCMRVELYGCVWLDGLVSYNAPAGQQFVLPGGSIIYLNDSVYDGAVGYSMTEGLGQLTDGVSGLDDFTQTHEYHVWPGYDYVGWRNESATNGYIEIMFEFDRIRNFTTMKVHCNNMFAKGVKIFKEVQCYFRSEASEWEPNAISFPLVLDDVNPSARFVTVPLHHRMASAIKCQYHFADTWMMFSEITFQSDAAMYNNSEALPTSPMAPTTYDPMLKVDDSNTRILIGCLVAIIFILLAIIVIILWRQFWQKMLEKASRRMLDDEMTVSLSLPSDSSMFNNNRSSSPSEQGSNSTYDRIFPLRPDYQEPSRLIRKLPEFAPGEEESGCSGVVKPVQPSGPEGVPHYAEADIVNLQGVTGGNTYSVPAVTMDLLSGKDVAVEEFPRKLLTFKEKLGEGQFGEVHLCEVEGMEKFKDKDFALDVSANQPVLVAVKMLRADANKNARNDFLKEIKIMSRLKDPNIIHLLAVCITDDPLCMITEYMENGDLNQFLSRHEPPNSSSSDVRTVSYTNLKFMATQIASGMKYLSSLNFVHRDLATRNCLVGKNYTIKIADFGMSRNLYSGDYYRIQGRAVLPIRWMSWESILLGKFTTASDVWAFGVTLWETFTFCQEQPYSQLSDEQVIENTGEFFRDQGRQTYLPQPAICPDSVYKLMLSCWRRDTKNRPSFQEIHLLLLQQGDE
UniProt Q12851: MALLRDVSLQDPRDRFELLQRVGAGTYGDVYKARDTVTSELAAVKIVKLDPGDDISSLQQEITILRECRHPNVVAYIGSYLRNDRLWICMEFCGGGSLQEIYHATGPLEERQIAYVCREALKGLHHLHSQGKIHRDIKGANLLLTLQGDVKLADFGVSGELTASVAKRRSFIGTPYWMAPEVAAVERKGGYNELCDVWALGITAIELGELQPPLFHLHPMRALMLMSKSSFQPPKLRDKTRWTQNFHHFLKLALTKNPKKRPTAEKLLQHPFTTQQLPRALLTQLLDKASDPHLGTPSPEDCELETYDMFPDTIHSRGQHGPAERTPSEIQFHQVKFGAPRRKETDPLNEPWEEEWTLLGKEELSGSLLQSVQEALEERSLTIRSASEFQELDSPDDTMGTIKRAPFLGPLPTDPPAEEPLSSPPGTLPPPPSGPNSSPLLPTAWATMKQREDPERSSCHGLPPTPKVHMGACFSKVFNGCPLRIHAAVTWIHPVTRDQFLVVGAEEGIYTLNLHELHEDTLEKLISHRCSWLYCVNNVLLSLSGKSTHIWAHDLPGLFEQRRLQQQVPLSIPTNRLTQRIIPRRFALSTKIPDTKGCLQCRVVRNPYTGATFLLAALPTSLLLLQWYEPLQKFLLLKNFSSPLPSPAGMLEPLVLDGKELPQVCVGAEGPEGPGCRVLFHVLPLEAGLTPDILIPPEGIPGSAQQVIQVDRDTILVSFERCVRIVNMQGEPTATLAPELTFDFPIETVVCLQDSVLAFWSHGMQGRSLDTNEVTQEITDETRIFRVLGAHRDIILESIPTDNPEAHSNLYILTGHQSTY
UniProt Q86Z02: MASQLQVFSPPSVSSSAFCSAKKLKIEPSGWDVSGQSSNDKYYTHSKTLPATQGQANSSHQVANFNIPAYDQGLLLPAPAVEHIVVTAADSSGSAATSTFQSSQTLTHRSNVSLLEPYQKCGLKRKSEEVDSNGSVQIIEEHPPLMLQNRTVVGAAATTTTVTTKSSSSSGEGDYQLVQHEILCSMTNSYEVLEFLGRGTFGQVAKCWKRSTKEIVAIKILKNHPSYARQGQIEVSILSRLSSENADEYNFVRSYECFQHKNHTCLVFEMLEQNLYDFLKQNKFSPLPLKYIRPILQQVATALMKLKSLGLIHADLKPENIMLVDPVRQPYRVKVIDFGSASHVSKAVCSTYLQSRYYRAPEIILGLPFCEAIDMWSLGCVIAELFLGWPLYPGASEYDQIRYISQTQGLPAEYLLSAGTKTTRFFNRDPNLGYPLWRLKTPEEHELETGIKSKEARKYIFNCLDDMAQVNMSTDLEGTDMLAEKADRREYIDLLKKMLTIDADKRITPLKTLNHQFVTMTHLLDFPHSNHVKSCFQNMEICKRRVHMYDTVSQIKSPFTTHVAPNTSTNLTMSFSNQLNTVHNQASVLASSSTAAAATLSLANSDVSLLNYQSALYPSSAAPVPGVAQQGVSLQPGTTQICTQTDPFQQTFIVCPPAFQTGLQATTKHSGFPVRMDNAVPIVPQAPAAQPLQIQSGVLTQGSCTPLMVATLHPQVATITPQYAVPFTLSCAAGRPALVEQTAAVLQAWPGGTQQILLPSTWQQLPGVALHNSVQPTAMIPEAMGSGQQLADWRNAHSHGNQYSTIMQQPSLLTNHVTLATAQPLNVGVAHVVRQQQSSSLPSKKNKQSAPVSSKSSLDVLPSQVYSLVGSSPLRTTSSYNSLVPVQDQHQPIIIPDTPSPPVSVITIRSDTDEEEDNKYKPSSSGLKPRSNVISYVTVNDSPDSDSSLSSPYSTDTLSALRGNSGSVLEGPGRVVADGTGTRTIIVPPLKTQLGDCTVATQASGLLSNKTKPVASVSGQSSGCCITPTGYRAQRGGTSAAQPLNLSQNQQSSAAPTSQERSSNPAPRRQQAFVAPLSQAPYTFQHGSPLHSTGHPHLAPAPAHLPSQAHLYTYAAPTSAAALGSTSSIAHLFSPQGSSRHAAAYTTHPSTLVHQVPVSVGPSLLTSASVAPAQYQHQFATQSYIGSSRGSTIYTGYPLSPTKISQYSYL
UniProt Q04759: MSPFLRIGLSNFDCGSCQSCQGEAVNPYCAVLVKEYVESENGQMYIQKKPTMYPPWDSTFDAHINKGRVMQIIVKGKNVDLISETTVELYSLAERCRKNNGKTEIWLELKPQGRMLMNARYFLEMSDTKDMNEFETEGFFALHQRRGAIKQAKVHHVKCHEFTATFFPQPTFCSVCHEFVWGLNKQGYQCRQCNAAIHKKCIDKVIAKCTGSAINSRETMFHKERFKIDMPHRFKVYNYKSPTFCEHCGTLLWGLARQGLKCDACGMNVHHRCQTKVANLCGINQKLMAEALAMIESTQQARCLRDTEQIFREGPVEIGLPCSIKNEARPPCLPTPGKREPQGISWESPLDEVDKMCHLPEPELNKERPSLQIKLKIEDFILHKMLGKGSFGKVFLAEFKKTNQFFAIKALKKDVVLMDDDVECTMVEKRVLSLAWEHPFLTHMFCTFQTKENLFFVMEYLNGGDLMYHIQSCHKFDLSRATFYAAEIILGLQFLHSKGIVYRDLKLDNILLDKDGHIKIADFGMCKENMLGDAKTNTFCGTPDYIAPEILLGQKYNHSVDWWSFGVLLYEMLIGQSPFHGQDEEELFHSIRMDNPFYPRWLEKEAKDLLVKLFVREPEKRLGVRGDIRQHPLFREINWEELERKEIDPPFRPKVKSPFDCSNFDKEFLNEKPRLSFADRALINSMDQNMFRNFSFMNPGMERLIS
UniProt Q8IW41: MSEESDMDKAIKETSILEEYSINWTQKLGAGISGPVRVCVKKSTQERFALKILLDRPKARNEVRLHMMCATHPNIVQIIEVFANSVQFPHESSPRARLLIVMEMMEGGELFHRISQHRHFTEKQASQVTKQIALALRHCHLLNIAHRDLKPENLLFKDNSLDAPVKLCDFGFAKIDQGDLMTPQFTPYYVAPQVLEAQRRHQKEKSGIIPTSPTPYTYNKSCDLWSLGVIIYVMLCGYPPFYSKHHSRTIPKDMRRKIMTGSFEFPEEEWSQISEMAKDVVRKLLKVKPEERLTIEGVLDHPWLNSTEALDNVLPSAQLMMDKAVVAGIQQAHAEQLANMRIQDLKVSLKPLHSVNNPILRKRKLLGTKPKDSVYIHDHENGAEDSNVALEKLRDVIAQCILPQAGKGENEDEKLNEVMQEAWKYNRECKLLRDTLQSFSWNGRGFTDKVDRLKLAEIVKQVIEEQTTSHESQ
UniProt P11309, whole entry, looked up: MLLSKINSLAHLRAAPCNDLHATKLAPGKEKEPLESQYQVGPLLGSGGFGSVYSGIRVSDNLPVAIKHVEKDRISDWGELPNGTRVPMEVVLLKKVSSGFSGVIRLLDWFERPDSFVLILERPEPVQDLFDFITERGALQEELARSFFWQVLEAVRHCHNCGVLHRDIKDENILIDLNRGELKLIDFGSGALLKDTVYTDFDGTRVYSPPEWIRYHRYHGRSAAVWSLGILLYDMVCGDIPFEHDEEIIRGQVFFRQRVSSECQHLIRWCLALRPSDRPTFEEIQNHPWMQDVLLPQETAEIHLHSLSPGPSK
UniProt O43353, whole entry: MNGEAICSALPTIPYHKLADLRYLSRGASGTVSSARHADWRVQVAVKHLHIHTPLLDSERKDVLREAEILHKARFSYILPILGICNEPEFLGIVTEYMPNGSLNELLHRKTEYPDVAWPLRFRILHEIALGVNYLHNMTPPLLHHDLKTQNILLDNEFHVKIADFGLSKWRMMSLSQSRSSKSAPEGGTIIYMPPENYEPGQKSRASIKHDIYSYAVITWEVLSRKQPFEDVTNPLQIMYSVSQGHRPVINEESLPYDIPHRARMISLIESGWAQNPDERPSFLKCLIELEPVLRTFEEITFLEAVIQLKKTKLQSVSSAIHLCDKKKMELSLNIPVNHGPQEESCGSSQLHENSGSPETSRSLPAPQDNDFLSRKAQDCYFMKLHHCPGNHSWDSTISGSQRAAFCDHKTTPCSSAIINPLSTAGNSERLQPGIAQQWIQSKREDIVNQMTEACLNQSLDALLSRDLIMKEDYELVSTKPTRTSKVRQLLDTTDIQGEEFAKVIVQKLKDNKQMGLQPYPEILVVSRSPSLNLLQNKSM

Legend:
[1] = molecular target: Tyrosine-protein kinase ABL2 (Homo sapiens) (UniProt P42684); conditions: at 1 µM
[2] = molecular target: Aurora kinase A (Homo sapiens) (UniProt O14965); conditions: at 10 µM
[3] = molecular target: Aurora kinase B (Homo sapiens) (UniProt Q96GD4); conditions: at 1 µM
[4] = molecular target: Aurora kinase C (Homo sapiens) (UniProt Q9UQB9); conditions: at 1 µM
[5] = molecular target: Protein-tyrosine kinase 6 (Homo sapiens) (UniProt Q13882); conditions: at 10 µM
[6] = molecular target: Tyrosine-protein kinase BTK (Homo sapiens) (UniProt Q06187); conditions: at 1 µM
[7] = molecular target: Tyrosine-protein kinase BTK (Homo sapiens) (UniProt Q06187); conditions: at 10 µM
[8] = molecular target: Serine/threonine-protein kinase BRSK1 (Homo sapiens) (UniProt Q8TDC3); conditions: at 1 µM
[9] = molecular target: Serine/threonine-protein kinase BRSK1 (Homo sapiens) (UniProt Q8TDC3); conditions: at 10 µM
[10] = molecular target: CDK3/cyclin E (Homo sapiens) (UniProt P24864+O96020+Q00526); conditions: at 10 µM
[11] = molecular target: T1, Cyclin-dependent kinase 5/CDK5 activator 1 (Homo sapiens) (UniProt Q00535+Q15078); conditions: at 1 µM
[12] = molecular target: T1, Cyclin-dependent kinase 5/CDK5 activator 1 (Homo sapiens); conditions: at 10 µM
[13] = molecular target: T1, Cyclin-dependent kinase 5/CDK5 activator 1 (Homo sapiens); conditions: at 1 µM; remark: listed apart in the source
[14] = molecular target: T1, Cyclin-dependent kinase 5/CDK5 activator 1 (Homo sapiens); conditions: at 10 µM; remark: listed apart in the source
[15] = molecular target: Cyclin-dependent kinase 7/ cyclin H (Homo sapiens) (UniProt P51946+P50613); conditions: at 1 µM
[16] = molecular target: Serine/threonine-protein kinase Chk1 (Homo sapiens) (UniProt O14757); conditions: at 1 µM
[17] = molecular target: Serine/threonine-protein kinase Chk2 (Homo sapiens) (UniProt O96017); conditions: at 1 µM
[18] = molecular target: Serine/threonine-protein kinase Chk2 (Homo sapiens) (UniProt O96017); conditions: at 10 µM
[19] = molecular target: Casein kinase I isoform delta (Homo sapiens) (UniProt P48730); conditions: at 1 µM
[20] = molecular target: Casein kinase I isoform delta (Homo sapiens) (UniProt P48730); conditions: at 10 µM
[21] = molecular target: Calcium/calmodulin-dependent protein kinase type II subunit beta (Homo sapiens) (UniProt Q13554); conditions: at 10 µM
[22] = molecular target: Calcium/calmodulin-dependent protein kinase type II subunit gamma (Homo sapiens) (UniProt Q13555); conditions: at 1 µM
[23] = molecular target: Death-associated protein kinase 1 (Homo sapiens) (UniProt P53355); conditions: at 1 µM
[24] = molecular target: Death-associated protein kinase 1 (Homo sapiens) (UniProt P53355); conditions: at 10 µM
[25] = molecular target: Serine/threonine-protein kinase DCLK2 (Homo sapiens) (UniProt Q8N568); conditions: at 10 µM
[26] = molecular target: Discoidin domain-containing receptor 2 (Homo sapiens) (UniProt Q16832); conditions: at 10 µM
[27] = molecular target: Ephrin type-A receptor 3 (Homo sapiens) (UniProt P29320); conditions: at 10 µM
[28] = molecular target: Ephrin type-A receptor 7 (Homo sapiens) (UniProt Q15375); conditions: at 1 µM
[29] = molecular target: Ephrin type-A receptor 8 (Homo sapiens) (UniProt P29322); conditions: at 10 µM
[30] = molecular target: Ephrin type-B receptor 1 (Homo sapiens) (UniProt P54762); conditions: at 1 µM
[31] = molecular target: Ephrin type-B receptor 2 (Homo sapiens) (UniProt P29323); conditions: at 1 µM
[32] = molecular target: Receptor tyrosine-protein kinase erbB-4 (Homo sapiens) (UniProt Q15303); conditions: at 10 µM
[33] = molecular target: Focal adhesion kinase 1 (Homo sapiens) (UniProt Q05397); conditions: at 1 µM
[34] = molecular target: Focal adhesion kinase 1 (Homo sapiens) (UniProt Q05397); conditions: at 10 µM
[35] = molecular target: Tyrosine-protein kinase Fes/Fps (Homo sapiens) (UniProt P07332); conditions: at 10 µM
[36] = molecular target: Vascular endothelial growth factor receptor 1 (Homo sapiens) (UniProt P17948); conditions: at 10 µM
[37] = molecular target: Vascular endothelial growth factor receptor 3 (Homo sapiens) (UniProt P35916); conditions: at 1 µM
[38] = molecular target: Tyrosine-protein kinase Fyn (Homo sapiens) (UniProt P06241); conditions: at 1 µM
[39] = molecular target: Mitogen-activated protein kinase kinase kinase kinase 2 (Homo sapiens) (UniProt Q12851); conditions: at 10 µM
[40] = molecular target: G protein-coupled receptor kinase 6 (Homo sapiens) (UniProt P43250); conditions: at 10 µM
[41] = molecular target: Rhodopsin kinase GRK7 (Homo sapiens) (UniProt Q8WTQ7); conditions: at 10 µM
[42] = molecular target: Homeodomain-interacting protein kinase 1 (Homo sapiens) (UniProt Q86Z02); conditions: at 1 µM
[43] = molecular target: Homeodomain-interacting protein kinase 2 (Homo sapiens) (UniProt Q9H2X6); conditions: at 1 µM
[44] = molecular target: Homeodomain-interacting protein kinase 2 (Homo sapiens) (UniProt Q9H2X6); conditions: at 10 µM
[45] = molecular target: Homeodomain-interacting protein kinase 3 (Homo sapiens) (UniProt Q9H422); conditions: at 1 µM
[46] = molecular target: Homeodomain-interacting protein kinase 3 (Homo sapiens) (UniProt Q9H422); conditions: at 10 µM
[47] = molecular target: Serine/threonine-protein kinase haspin (Homo sapiens) (UniProt Q8TF76); conditions: at 1 µM
[48] = molecular target: Tyrosine-protein kinase HCK (Homo sapiens) (UniProt P08631); conditions: at 1 µM
[49] = molecular target: Protein kinase C theta type (Homo sapiens) (UniProt Q04759); conditions: at 10 µM
[50] = molecular target: Protein kinase C iota type (Homo sapiens) (UniProt P41743); conditions: at 1 µM
[51] = molecular target: Serine/threonine-protein kinase D2 (Homo sapiens) (UniProt Q9BZL6); conditions: at 1 µM
[52] = molecular target: T2, cGMP-dependent protein kinase 1 (Homo sapiens) (UniProt Q13976); conditions: at 10 µM
T2 sequence (whole entry): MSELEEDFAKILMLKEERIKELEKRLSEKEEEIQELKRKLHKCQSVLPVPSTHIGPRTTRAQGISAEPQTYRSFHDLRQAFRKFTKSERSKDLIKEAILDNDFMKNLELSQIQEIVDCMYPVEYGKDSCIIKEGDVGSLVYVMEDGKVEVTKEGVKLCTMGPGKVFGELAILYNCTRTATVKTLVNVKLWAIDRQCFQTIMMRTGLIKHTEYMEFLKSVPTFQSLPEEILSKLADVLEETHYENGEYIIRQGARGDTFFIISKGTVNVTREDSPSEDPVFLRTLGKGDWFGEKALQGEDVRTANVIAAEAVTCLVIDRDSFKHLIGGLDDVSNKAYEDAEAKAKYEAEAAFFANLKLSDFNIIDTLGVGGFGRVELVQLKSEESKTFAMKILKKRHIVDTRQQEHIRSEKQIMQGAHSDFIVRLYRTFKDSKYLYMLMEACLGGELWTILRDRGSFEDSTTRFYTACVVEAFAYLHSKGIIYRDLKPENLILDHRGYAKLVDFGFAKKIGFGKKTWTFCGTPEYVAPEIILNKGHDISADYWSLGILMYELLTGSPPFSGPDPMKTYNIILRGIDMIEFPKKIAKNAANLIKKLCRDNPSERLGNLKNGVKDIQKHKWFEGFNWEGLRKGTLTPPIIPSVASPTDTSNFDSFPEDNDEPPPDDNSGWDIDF

[53] = molecular target: T2, cGMP-dependent protein kinase 1 (Homo sapiens); conditions: at 1 µM
[54] = molecular target: T2, cGMP-dependent protein kinase 1 (Homo sapiens); conditions: at 10 µM; remark: listed apart in the source
[55] = molecular target: MAP kinase-activated protein kinase 5 (Homo sapiens) (UniProt Q8IW41); conditions: at 1 µM
[56] = molecular target: Serine/threonine-protein kinase N2 (Homo sapiens) (UniProt Q16513); conditions: at 1 µM
[57] = molecular target: Tyrosine-protein kinase FRK (Homo sapiens) (UniProt P42685); conditions: at 1 µM
[58] = molecular target: Tyrosine-protein kinase FRK (Homo sapiens) (UniProt P42685); conditions: at 10 µM
[59] = molecular target: Serine/threonine-protein kinase pim-1 (Homo sapiens) (UniProt P11309); conditions: at 1 µM
[60] = molecular target: Serine/threonine-protein kinase pim-1 (Homo sapiens) (UniProt P11309); conditions: at 10 µM
[61] = molecular target: Serine/threonine-protein kinase pim-3 (Homo sapiens) (UniProt Q86V86); conditions: at 10 µM
[62] = molecular target: Receptor-interacting serine/threonine-protein kinase 2 (Homo sapiens) (UniProt O43353); conditions: at 1 µM

In the case of O=C1c2ccccc2-c2nc3nnnn3nc21, the residual activity [1] is reported as 110%, the residual activity [2] is reported as 86% and the residual activity [3] is reported as 89%. It also gave a residual activity [4] of 96%, a residual activity [5] of 90% and a residual activity [6] of 86%. It also gave a residual activity [7] of 89%, a residual activity [8] of 81% and a residual activity [9] of 86%. For the same compound, the residual activity [10] was 96%, the residual activity [11] was 97% and the residual activity [12] was 96%. It also gave a residual activity [13] of 84%, a residual activity [14] of 104% and a residual activity [15] of 84%. For the same compound, the residual activity [16] was 95%, the residual activity [17] was 85% and the residual activity [18] was 89%. It also gave a residual activity [19] of 84%, a residual activity [20] of 98% and a residual activity [21] of 102%. It also gave a residual activity [22] of 120%, a residual activity [23] of 95% and a residual activity [24] of 85%. For the same compound, the residual activity [25] was 95%, the residual activity [26] was 92% and the residual activity [27] was 99%. It also gave a residual activity [28] of 103%, a residual activity [29] of 92% and a residual activity [30] of 96%. It also gave a residual activity [31] of 126%, a residual activity [32] of 87% and a residual activity [33] of 87%. It also gave a residual activity [34] of 91%, a residual activity [35] of 89% and a residual activity [36] of 89%. For the same compound, the residual activity [37] was 98%, the residual activity [38] was 94% and the residual activity [39] was 92%. For the same compound, the residual activity [40] was 91%, the residual activity [41] was 93% and the residual activity [42] was 96%. The residual activity [43] was 99%, the residual activity [44] was 92% and the residual activity [45] was 96%. The residual activity [46] was 90%, the residual activity [47] was 86% and the residual activity [48] was 89%. The residual activity [49] was 99%, the residual activity [50] was inactive: 99% and the residual activity [51] was 96%. For the same compound, the residual activity [52] was 101%, the residual activity [53] was 103% and the residual activity [54] was 96%. It also gave a residual activity [55] of 93%, a residual activity [56] of 94% and a residual activity [57] of 95%. The residual activity [58] was 84%, the residual activity [59] was 85% and the residual activity [60] was 82%. For the same compound, the residual activity [61] was 97% and the residual activity [62] was 101%.
